In the assay the target is Amine oxidase [flavin-containing] A (Homo sapiens, UniProt P21397). The assay can be described thus: Inhibition of human recombinant monoamine oxidase-A assessed as kynuramine conversion to […] after 20 mins by fluorescence spectrophotometric analysis.

Chains of the proteins cited; added tags and fusions are not shown.
UniProt P21397, whole entry: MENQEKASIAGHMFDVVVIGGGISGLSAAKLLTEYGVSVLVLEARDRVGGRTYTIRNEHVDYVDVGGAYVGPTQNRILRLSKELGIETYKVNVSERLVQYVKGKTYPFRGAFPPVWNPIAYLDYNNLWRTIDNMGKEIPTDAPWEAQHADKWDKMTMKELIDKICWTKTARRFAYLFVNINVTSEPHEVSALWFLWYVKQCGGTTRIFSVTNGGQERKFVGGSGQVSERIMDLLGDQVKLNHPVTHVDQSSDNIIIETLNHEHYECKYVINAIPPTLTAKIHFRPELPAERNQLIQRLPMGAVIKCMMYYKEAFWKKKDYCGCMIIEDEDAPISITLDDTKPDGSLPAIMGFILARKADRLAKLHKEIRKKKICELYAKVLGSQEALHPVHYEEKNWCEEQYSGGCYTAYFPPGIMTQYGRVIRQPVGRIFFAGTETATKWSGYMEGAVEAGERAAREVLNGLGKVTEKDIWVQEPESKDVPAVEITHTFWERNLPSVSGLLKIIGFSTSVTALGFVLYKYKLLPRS

In general, IC50 refers to the point on the concentration scale where inhibition reaches its midpoint. Turning to `C#CCN(C)Cc1ccccc1` [PARGYLINE], the IC50 was found to be 13 µM.

The record behind these values is ChEMBL document CHEMBL2390879, “Inhibition of monoamine oxidase by phthalide analogues” (Bioorg Med Chem Lett, 2013).
